Assay results reported in PubChem BioAssay AID2427 (National Center for Advancing Translational Sciences (NCATS), 2010).
The hits were mostly taken out for another list; the other results follow. Active and inactive are the calls of the source.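 Rule for the calls: active = melting temperature shift above 3 C; inconclusive = shift above 1 C but not above 3 C; inactive = the rest.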

Sequences of proteins named here, by UniProt entry; tags and fusion partners are left off. A change or cut given only in a name is not applied to a line headed by its entry.
UniProt P15428: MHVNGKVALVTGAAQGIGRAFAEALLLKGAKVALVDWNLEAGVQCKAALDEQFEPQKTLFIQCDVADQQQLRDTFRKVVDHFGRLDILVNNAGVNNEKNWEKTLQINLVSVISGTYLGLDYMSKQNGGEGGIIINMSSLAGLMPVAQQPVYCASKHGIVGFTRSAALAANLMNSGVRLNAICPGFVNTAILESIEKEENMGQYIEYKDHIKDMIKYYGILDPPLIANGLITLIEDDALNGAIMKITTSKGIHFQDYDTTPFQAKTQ

Target: 15-hydroxyprostaglandin dehydrogenase [NAD(+)] (Homo sapiens) (UniProt P15428)
Test: Thermal Shift Assay for Inhibitors of HPGD (15-Hydroxyprostaglandin Dehydrogenase)
Conditions: Recombinant HPGD thermal shift, SYPRO orange DSF, at 250 µM, stronger effect = higher value
Experimental: Assay Overview: Human 15-Hydroxyprostaglandin dehydrogenase (HPGD) catalyzes the inactivation of prostaglandin E2, and plays a major role in cancer biology by antagonizing the oncogenic potential of cyclooxygenase type 2 (COX2). Studies to assess the stability of human 15-PGDH in presence of compounds was performed as described (Niesen et al., 2007) with variations. References 1. Myung SJ, Rerko RM, Yan M, Platzer P, Guda K, Dotson A, Lawrence E, Dannenberg AJ, Lovgren AK, Luo G, Pretlow TP, Newman RA, Willis J, Dawson D, Markowitz SD. 15-Hydroxyprostaglandin dehydrogenase is an in vivo suppressor of colon tumorigenesis. Proc Natl Acad Sci U S A. 2006 Aug 8;103(32):12098-102. 2. Yan M, Rerko RM, Platzer P, Dawson D, Willis J, Tong M, Lawrence E, Lutterbaugh J, Lu S, Willson JK, Luo G, Hensold J, Tai HH, Wilson K, Markowitz SD. 15-Hydroxyprostaglandin dehydrogenase, a COX-2 oncogene antagonist, is a TGF-beta-induced suppressor of human gastrointestinal cancers. Proc Natl Acad Sci U S A. 2004 Dec 14;101(50):17468-73. 3. […]
HPGD was diluted to a final assay concentration of 1 uM in 100 mM Tris buffer, pH 8.0, containing 0.01% Tween-20 and 1:1000 SYPRO orange dye. […] Heat denaturation curves were recorded using a RT-PCR instrument (Mx3005p, Agilent) applying a temperature gradient of 2 degree C/min. […]

## N#Cc1ccccc1CSc1nc2ncc(Br)cc2[nH]1
  thermal shift (delta Tm): active: 12.2 C
Measured here: delta Tm with NADH cofactor
  thermal shift (delta Tm): 2.9 C
